Patent US20170007561A1, “CONTEMPORANEOUS, HETEROGENEOUSLY-ORIENTED, MULTI-TARGETED THERAPEUTIC MODIFICATION AND/OR MODULATION OF DISEASE BY ADMINISTRATION OF SULFUR-CONTAINING, AMINO ACID-SPECIFIC SMALL MOLECULES” (BioNumerik Pharmaceuticals, Inc., priority 2014, published 2017)

Chains of the proteins cited; added tags and fusions are not shown. Residues count along the entry.
UniProt P08922, 1883-2347: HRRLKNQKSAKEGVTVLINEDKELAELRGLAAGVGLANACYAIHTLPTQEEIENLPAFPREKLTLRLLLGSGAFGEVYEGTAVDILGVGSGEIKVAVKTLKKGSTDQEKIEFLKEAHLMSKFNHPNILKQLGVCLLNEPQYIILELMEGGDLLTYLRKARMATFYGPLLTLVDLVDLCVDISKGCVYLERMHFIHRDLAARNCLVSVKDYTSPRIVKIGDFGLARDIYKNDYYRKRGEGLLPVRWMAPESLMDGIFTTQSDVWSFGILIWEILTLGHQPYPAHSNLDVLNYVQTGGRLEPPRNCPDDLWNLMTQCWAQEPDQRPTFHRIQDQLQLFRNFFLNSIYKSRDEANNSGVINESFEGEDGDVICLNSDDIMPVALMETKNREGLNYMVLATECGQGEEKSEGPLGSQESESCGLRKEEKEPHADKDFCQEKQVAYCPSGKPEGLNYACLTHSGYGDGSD

Tests used:
[1] = molecular target: Recombinant human ROS1 kinase (residues 1883-2347) (Homo sapiens, UniProt P08922)
[2] = molecular target: T1, recombinant human Trx (Homo sapiens, UniProt P10599); conditions: 10 mM, 37° C., 4 to 6 hours
T1 sequence (P10599 1-105): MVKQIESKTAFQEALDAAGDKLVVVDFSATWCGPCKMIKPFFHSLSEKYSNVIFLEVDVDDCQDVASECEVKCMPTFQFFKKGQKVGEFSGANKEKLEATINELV

| SMILES | effect on ROS1 kinase activity ([1]; ROS1 incubated with Tavocept 3 hours or 24 hours prior to addition of ATP and polyGT) | effect on crizotinib-mediated inhibition of ROS1 kinase activity ([1]; Tavocept incubated with ROS1 for 3 or 24 hours prior to crizotinib, ATP and polyGT, 100 μM ATP, listed as BNP7787) | Adduct on Trx identified by LC MS [2] |
| --- | --- | --- | --- |
| O=S(=O)([O-])CCSSCCS(=O)(=O)[O-].[Na+].[Na+] [Tavocept, disodium 2,2′-dithio-bis-ethane sulfonate] | time-dependent loss of activity | additive effect |  |
| N[C@@H](CCC(=O)N[C@@H](CS)C(=O)NCC(=O)O)C(=O)O [glutathione, γ-glutamyl-cysteinyl-glycine, reference compound] |  |  | glutathionylated at cysteine-73 (Cys73) |
| O=S(=O)([O-])CCS.[Na+] [mesna, 2-mercapto ethane sulfonate] |  |  | mesna adduct on Cys73 of Trx |
